Molecular target: T1, TTR-oligomers in human plasma from ATTRv carriers (TTR V30M; one TTR A45T) (Homo sapiens, UniProt P02766, V50M)
T1 construct: Plasma from ATTR-V30M gene carriers as well as TTR wt was collected using EDTA tubes; from tissue; host or cells: human plasma (EDTA) of ATTRv gene carriers
Assay: In vitro treatment of human plasma from ATTRv carriers, TTR-oligomer sandwich ELISA (MAB39-44)
Format: biochemical
Conditions: 0-1000 μM (mostly 0-600 μM), 24 h, 37° C., FIG. 4-19
Procedure: Plasma from ATTR-V30M gene carriers as well as TTR wt was collected using EDTA tubes. All plasma samples were buffered by the addition of a 10× phosphate buffer pH 7.4 to acquire a final phosphate concentration corresponding to 20 mM, and then frozen in liquid nitrogen following storage at -80° C. Before analysis using the plasma was thawed and serial diluted in 20 mM phosphate, 150 mM NaCl, 0.3% tween-20 (PBS-T) following analysis in the below-described ELISA. Samples were only thawed once. […] Thereafter, a blocking buffer was added comprising 2% dry milk dissolved in TRIS 20 mM, pH7.5, 150 mM NaCl, and 0.3% Tween. The plate was washed 3*5 min with TRIS 20 mM, pH7.5, 150 mM NaCl, and 0.3% Tween, hereinafter called the wash buffer. Plasma was diluted 0-1000 times in wash buffer and incubated for 1 hour. Thereafter, the plate was washed 3*5 min with wash buffer. A polyclonal rabbit anti-TTR antibody A0002 (DAKO, Odense Denmark). diluted 1:1000 in blocking buffer, was added and incubated for 1 hour. The plate was washed 3*5 min with wash buffer. An anti-rabbit antibody conjugated to HRP enzyme, (Agrisera, Umeå […]), diluted 1:10 000 in blocking buffer was added and incubated for 1 hour. The plate was washed 3*5 min in wash buffer. […] Absorbance was measured at 550 nm. Alternatively, an enhanced chemoluminscense substrate (Agrisera, Umeå, […]) was used and the luminescence measured. […]

D-pantethine [D-panthethine]
levels of non-native TTR-oligomers in plasma: converts the non-native oligomers back to the native fold
